In US20250049817A1, “JAK INHIBITOR WITH A VITAMIN D ANALOG FOR TREATMENT OF SKIN DISEASES” (INCYTE CORPORATION, priority 2020, published 2025):

Assays:
[1] = tested on: Th1 or Th17 stimulated human skin; details: topical dosing, aqueous solutions, ruxolitinib 0.75% and 1.5%, 24 hours post stimulation
[2] = tested on: IL-22 production in human T-cells; details: read-out: IC50 for inhibiting IL-23 stimulated IL-22 production; cited from earlier work
[3] = tested on: STAT3 phosphorylation; details: read-out: IC50 in TPO induced STAT3 phosphorylation assay; human whole blood; cited from earlier work

Question: Which “gene expression of CXCL10” value [1] does the source give for `N#CC[C@H](C1CCCC1)n1cc(-c2ncnc3[nH]ccc23)cn1` [ruxolitinib] here?
Answer: The value was “strong effect on gene expression”.

Question: What about the “gene expression of IL-22” value [1] of the same molecule?
Answer: The value was “strong effect on gene expression”.

Question: What about the IC50 [2] of the same molecule?
Answer: The IC50 was 50 nM.

Question: What about the IC50 [3] of the same molecule?
Answer: The IC50 was 281 nM.
